Assay results as given in patent publication US9387198B1, “Inhibitors of advanced glycation end-products (ages)formation” (priority 2015, dated 2016).

How the values were obtained:
[1] = test system: rat hepatocytes (CC1-Cell line); experiment: Fructose-derived AGE-induced intracellular ROS production (DCFH-DA technique); assay type: cell-based; details: 200 μg/mL, 24 hours, ex 490/em 520 nm
Method: Procedure of the Assay: Briefly, 6×10^4 cells/mL cells (normal rat hepatocytes: CC1-Cell line) were seeded on a 96-well plate and kept for 24 hours in an incubator, containing 5% CO2 at 37° C. Before treating with fructose-derived AGEs, the cells were exposed to serum free MEM (minimum essential medium) for next 24 hours. Initially the cells were incubated with 10 μM DCFH-DA non fluorescent probe, for 45 mins in the dark environment. At the end of the incubation, the cells were washed with 1×PBS twice and were incubated with varying concentrations of the fructose-derived AGE, such as 0, 50, 100, and 200 μg/mL, to investigate the AGEs effect on the production of intracellular ROS in a dose dependent manner. […]
Detection of Fluorescence Intensity: The intensity of fluorescence was measured at an excitation 490 nm and an emission 520 nm, using Spectra Max Spectrophotometer (Applied Biosystems, CA, USA).
Estimation of Percentage Inhibition: The inhibition of AGEs-induced intracellular production of ROS in rat hepatocytes incubated with novel anti-glycation agents, 6-nitrobenzimidazole derivatives, was measured by the following formula: Percentage Inhibition=100−[(Fluorescence of test compound−Fluorescence of blank)/(Fluorescence of control−Fluorescence of blank)×100] […]

[2] = test system: rat hepatocytes (CC1-Cell line); experiment: Fructose-derived AGE-mediated diminished growth of hepatocytes (MTT assay); details: 200 μg/mL, 24 hours

HSA: human serum albumin, non-glycated protein control at 200 μg/mL
Fluorescence (Average), intracellular ROS production [1]: 92.3
Absorbance (Average), proliferation of rat hepatocytes ([2]; MTT, 540 nm): 1.11
Percentage Inhibition of proliferation of rat hepatocytes ([2]; versus normal untreated cells): 15.6%
